The values that follow are results of earlier work, collected in publication PMC7076382 (Pharmaceutics, 2020).

The conditions of the data set: in vivo; cited from earlier work.

Take desmopressin: the absorbed fraction entry is “below 1%”.
